Results reported in US9169290B2, “Peptides and their use” (priority 2007, dated 2015).
Values after ≈ are worked out from the molar mass of the structure shown.

What was measured:
C. albicans = format: cell-based, Candida albicans
Description: (§1) Broth Dilution Antifungal Susceptibility Testing
(§2) The sensitivity of relevant fungal strains to the peptides was determined using Clinical Laboratory Standard Institute (CLSI; formerly NCCLS) Approved Standards.

C. krusei = format: cell-based, Candida krusei
Description: as §1, §2

Malasezzia furfur = format: cell-based
Description: as §1, §2

Trichophyton rubrum = format: cell-based
Description: as §1, §2

Row | MIC, Candida albicans NCTC3179 (C. albicans) | MIC (C. krusei) | MIC, Candida krusei NCPF3953 (C. krusei) | MIC (Malasezzia furfur) | MIC (Trichophyton rubrum) | MIC (C. albicans) | Structure (SMILES)
1 | 4 µM (≈ 9.44 µg/mL) | <16 µM | 8 µM (≈ 18.9 µg/mL) | 256 µM (≈ 604 µg/mL) | >2 µM |  | N=C(N)NCCC[C@H](NC(=O)[C@H](CCCNC(=N)N)NC(=O)[C@H](CCCNC(=N)N)NC(=O)[C@H](CCCNC(=N)N)NC(=O)[C@H](CCCNC(=N)N)NC(=O)[C@H](CCCNC(=N)N)NC(=O)[C@H](CCCNC(=N)N)NC(=O)[C@H](CCCNC(=N)N)NC(=O)[C@H](CCCNC(=N)N)NC(=O)[C@H](CCCNC(=N)N)NC(=O)[C@H](CCCNC(=N)N)NC(=O)[C@H](CCCNC(=N)N)NC(=O)[C@H](CCCNC(=N)N)NC(=O)[C@H](CCCNC(=N)N)NC(=O)[C@@H](N)CCCNC(=N)N)C(=O)O [NP319, RRRRRRRRRRRRRRR]
2 |  | 32 µM (≈ 75.5 µg/mL) |  |  |  | 4 µM (≈ 9.44 µg/mL) | N=C(N)NCCC[C@H](NC(=O)[C@H](CCCNC(=N)N)NC(=O)[C@H](CCCNC(=N)N)NC(=O)[C@H](CCCNC(=N)N)NC(=O)[C@H](CCCNC(=N)N)NC(=O)[C@H](CCCNC(=N)N)NC(=O)[C@H](CCCNC(=N)N)NC(=O)[C@H](CCCNC(=N)N)NC(=O)[C@H](CCCNC(=N)N)NC(=O)[C@H](CCCNC(=N)N)NC(=O)[C@H](CCCNC(=N)N)NC(=O)[C@H](CCCNC(=N)N)NC(=O)[C@H](CCCNC(=N)N)NC(=O)[C@H](CCCNC(=N)N)NC(=O)[C@@H](N)CCCNC(=N)N)C(=O)O [NP352, RRRRRRRRRRRRRRR]
3 |  |  |  |  |  | >2048 µM | NCCCC[C@H](NC(=O)[C@H](CCCCN)NC(=O)[C@@H](N)CCCCN)C(=O)O [NP342, KKK]
